Our source for the MIC values is patent publication US6130250A, “Veterinary use of a pleuromutilin derivative” (priority 1996, dated 2000).

The structures appear in SMILES notation. In brackets after ≈: the same amount, converted by molar mass.

The test system of this test is mycoplasma isolates of chicken origin. As to the kind of experiment: MIC, serial microdilution, mycoplasma isolates of chicken origin. Type of test: cell-based. The following applies: isolate 20008. In general terms: Dilution methods test growth across graded concentrations, often in twofold steps.

As usually defined, the MIC is the least concentration at which growth counts as inhibited. For `CC[C@H]1OC(=O)C[C@@H](O)[C@H](C)[C@@H](O[C@@H]2O[C@H](C)[C@@H](O[C@H]3C[C@@](C)(O)[C@@H](O)[C@H](C)O3)[C@H](N(C)C)[C@H]2O)[C@@H](CC=O)C[C@@H](C)C(=O)/C=C/C(C)=C/[C@@H]1CO[C@@H]1O[C@H](C)[C@@H](O)[C@@H](OC)[C@H]1OC` [tylosin], the MIC is 0.0625 µg/mL (≈ 0.0682 µM).
